US20260256936A1, “BIOACTIVE CONJUGATES, PREPARATION METHOD AND USE THEREOF” (priority 2023, published 2026)

Experiments:
[1] = for ADC AUClast / Tab AUClast: BALB/c nude mice, intravenous; for payload exposure compared with ADC3-A: mouse PK, in words
Experimental: Female BALB/c nude mice (n==3 per group) were treated with freshly prepared ADCs (5 or 10 mg/kg) through intravenous administration. At the designated time points after dosing, mice were anesthetized by isoflurane. […] Blood samples were placed at room temperature for about 30 minutes and processed by centrifugation (4° C., 3000×g, 7 min) to separate plasma. Serum samples were transferred into new 1.5 mL tubes and kept in a −80° C. freezer prior to analysis.
Serum payload concentrations. To determine serum payload concentrations, an aliquot of 15 μL sample was added with 150 μL IS (Verapamil, 10 ng/mL) in ACN/MeOH (1:1). The mixture was vortexed for 1 min and centrifuged at 4000 rpm for 10 min at 4° C. An aliquot of 80 μL supernatant was diluted with 80 μL, water, and the mixed sample was injected into LC-MS/MS.
LC-MS/MS method to determine payload bioanalysis. LC-MS/MS analysis was carried out under the following measurement conditions: • Instrument: LC-MS/MS (Triple Quad 6500 plus) • Monitor: MRM • Column: Advanced Materials Technology, HALO AQ-C18 2.7 μm 90 Å, 50*2.1 mm • Column temperature: 40° C. • canile phase A: H2O-0.1% FA • Mobile phase B: ACN-0.1% FA • Gradient program for MMAE: 15% B-15% B (0 min-0.4 min), 15% B-30% B (0.4 min-0.8 min), 30% B-30% B (0.8 min-1.8 min), 30% B-90% B (1.8 min-1.9 min), 90% B-90% B (1.9 min-2.4 min), 90% B-15% B (2.4 min-2.5 min), 15% B-15% B (2.5 min-3.0 min) • Injected sample amount: 10 μL (MMAE)
Plasma ADC and total Ab (Tab) concentrations. Plasma ADC and Tab concentrations were determined using an ELISA assay in which the capture reagent was CLL1 or PTK7 (as applicable) ECD (extracellular domain). The detection reagent was anti-payload Ab for ADC concentration and anti-human IgG polyclonal Ab for Tab concentration.
For ADC concentration, microplates were coated with CLL1 or PTK7, as applicable, ECD at 1 μg/mL, 100 μL per well and incubated overnight at 4° C. The microplates were washed 3 times with 0.05% PBST, then 200 μL 2% BSA solution was added per well. The plates were incubated at 37° C. for 1 h followed by washing 3 times with 0.05% PBST. Then 100 μL (of ADC samples or for standard curves) were added to each well. Plates were incubated at 37° C. for 1 h followed by washing 3 times with 0.05% PBST. 100 μL of 1 μg/ml biotin anti-MMAE antibody was added per well. Plates were again incubated at 37° C. for 1 h and then washed 3 times with 0.05% PBST. Then 100 μl of 1:10000 SA-HRP was added per well, incubated at 37° C. for 0.5h, followed by washing 3 times with 0.05% PBST. Lastly, 100 μL TMB was added per well and plates were incubated for 15 mins at room temperature before the addition of 100 μL stop solution per well. Plates were read at OD 450 on an ELISA microplate reader.
For Tab concentration of anti-CLL1 antibodies, the foregoing ADC method was used except for the following changes: 100 μL of anti human lgG Fc HRP (1:10000) was added per well.

[2] = for DAR changes compared with ADC3-A: mouse PK samples, in words; for DAR: mouse
Experimental: ADC DAR changes in mouse serum PK samples.
Human CLL1 or PTK7, as applicable, ECD was biotinylated and immobilized onto Dynabeads M-280 Streptavidin. ADCs were captured from the plasma samples by incubation with an ECD-bead system for 2 hours at 37° C. The captured ADCs were then washed with HBS-EP buffer (10 mM Hepes [pH 7.4], 150 mM NaCl, 3.4 mM ethylenediaminetetraacetic acid [EDTA], 0.005% Surfactant P20) and digested using IdeS enzyme at 37° C. for 1 h. After extensive washing of the beads with HBS-EP, water, and 10% acetonitrile, the ADC analytes were eluted using 30% acetonitrile with 1% formic acid. The samples were then reduced with 100 mM TCEP for 45 min. Liquid chromatography-tandem mass spectrometry (LC-MS/MS) methods were used for the ADC DAR analysis.

[3] = ADC hydrophobicity evaluation by HIC chromatography (DAR8 peak retention time); type: physicochemical; details: HIC retention time of DAR8 peak; later RT = more hydrophobic
Experimental: HIC method: HPLC analysis was carried out under the following measurement conditions: • HPLC system: Waters ACQUITY ARC HPLC System • Detector: measurement wavelength: 280 nm • Column: Tosoh Bioscience 4.6 μm ID×3.5 cm, 2.5 μm butyl-nonporous resin column • Column temperature: 25° C. • Mobile phase A: 1.5 M ammonium sulfate, 50 mM phosphate buffer, pH 7.0 • Mobile phase B: 50 mM phosphate buffer, 25% (V/V) Isopropanol, pH 7.0 • Gradient program: 0% B-0% B (0 min-2 min), 0% B-100% B (2 min-15 min), 100% B-100% B (15 min-16 min), 100% B-0% B (16 min-17 min), 0% B-0% B (17 min-20 min) • Injected sample amount: 20 g
ADC hydrophobicity evaluation: An ADC with a higher hydrophobic property would appear with a later retention time (“RT”) from HIC (hydrophobicity interaction column) chromatography. Results are presented in Tables 2A-2D using the DAR8 peak as a reference.

Molecule | ADC AUClast ([1]; 5 mg/kg) [µg·h/mL] | Tab AUClast ([1]; 5 mg/kg) [µg·h/mL] | payload exposure compared with ADC3-A [1] | DAR changes compared with ADC3-A [2] | DAR ([2]; 5 mg/kg, 2 h post-dosing) | DAR ([2]; 5 mg/kg, […] post-dosing) | DAR8 RT [3] [min] | ADC AUClast ([1]; 10 mg/kg) [µg·h/mL] | Tab AUClast ([1]; 10 mg/kg) [µg·h/mL] | DAR ([2]; 10 mg/kg, 2 h post-dosing) | DAR ([2]; 10 mg/kg, […] post-dosing)
3-3 (conjugate) heavy: EVQLVQSGAEVKKPGASVKVSCKASGYSFTDYYMHWVRQAPGQGLEWIGRINPYAGAAFYSQNFKDRVTLTVDTSTSTAYLELSSLRSEDTAVYYCAIERGADLEGYAMDYWGQGTLVTVSSASTKGPSVFPLAPSSKSTSGGTAALGCLVKDYFPEPVTVSWNSGALTSGVHTFPAVLQSSGLYSLSSVVTVPSSSLGTQTYICNVNHKPSNTKVDKKV[human IgG1 Fc not printed] light: DIQMTQSPSSLSASVGDRVTITCRASQSVSTSSYNYMHWYQQKPGKPPKLLIKYASNLESGVPSRFSGSGSGTDFTLTISSLQPEDFATYYCQHSWEIPLTFGQGTKVEIKRTVAAPSVFIFPPSDEQLKSGTASVVCLLNNFYPREAKVQWKVDNALQSGNSQESVTEQDSKDSTYSLSSTLTLSKADYEKHKVYACEVTHQGLSSPVTKSFNRGEC | 4229 | 4923 | lower payload exposure | lower DAR changes | 3.48 | 2.82 |  |  |  |  | 
3-1 (conjugate) heavy: EVQLVQSGAEVKKPGASVKVSCKASGYSFTDYYMHWVRQAPGQGLEWIGRINPYAGAAFYSQNFKDRVTLTVDTSTSTAYLELSSLRSEDTAVYYCAIERGADLEGYAMDYWGQGTLVTVSSASTKGPSVFPLAPSSKSTSGGTAALGCLVKDYFPEPVTVSWNSGALTSGVHTFPAVLQSSGLYSLSSVVTVPSSSLGTQTYICNVNHKPSNTKVDKKV[human IgG1 Fc not printed] light: DIQMTQSPSSLSASVGDRVTITCRASQSVSTSSYNYMHWYQQKPGKPPKLLIKYASNLESGVPSRFSGSGSGTDFTLTISSLQPEDFATYYCQHSWEIPLTFGQGTKVEIKRTVAAPSVFIFPPSDEQLKSGTASVVCLLNNFYPREAKVQWKVDNALQSGNSQESVTEQDSKDSTYSLSSTLTLSKADYEKHKVYACEVTHQGLSSPVTKSFNRGEC |  |  |  |  |  |  | 14.491 |  |  |  | 
3-6 (conjugate) heavy: EVQLVQSGAEVKKPGASVKVSCKASGYSFTDYYMHWVRQAPGQGLEWIGRINPYAGAAFYSQNFKDRVTLTVDTSTSTAYLELSSLRSEDTAVYYCAIERGADLEGYAMDYWGQGTLVTVSSASTKGPSVFPLAPSSKSTSGGTAALGCLVKDYFPEPVTVSWNSGALTSGVHTFPAVLQSSGLYSLSSVVTVPSSSLGTQTYICNVNHKPSNTKVDKKV[human IgG1 Fc not printed] light: DIQMTQSPSSLSASVGDRVTITCRASQSVSTSSYNYMHWYQQKPGKPPKLLIKYASNLESGVPSRFSGSGSGTDFTLTISSLQPEDFATYYCQHSWEIPLTFGQGTKVEIKRTVAAPSVFIFPPSDEQLKSGTASVVCLLNNFYPREAKVQWKVDNALQSGNSQESVTEQDSKDSTYSLSSTLTLSKADYEKHKVYACEVTHQGLSSPVTKSFNRGEC | 6969 | 7965 | lower payload exposure | lower DAR changes | 2.96 | 2.24 | 12.466 |  |  |  | 
3-2 (conjugate) heavy: EVQLVQSGAEVKKPGASVKVSCKASGYSFTDYYMHWVRQAPGQGLEWIGRINPYAGAAFYSQNFKDRVTLTVDTSTSTAYLELSSLRSEDTAVYYCAIERGADLEGYAMDYWGQGTLVTVSSASTKGPSVFPLAPSSKSTSGGTAALGCLVKDYFPEPVTVSWNSGALTSGVHTFPAVLQSSGLYSLSSVVTVPSSSLGTQTYICNVNHKPSNTKVDKKV[human IgG1 Fc not printed] light: DIQMTQSPSSLSASVGDRVTITCRASQSVSTSSYNYMHWYQQKPGKPPKLLIKYASNLESGVPSRFSGSGSGTDFTLTISSLQPEDFATYYCQHSWEIPLTFGQGTKVEIKRTVAAPSVFIFPPSDEQLKSGTASVVCLLNNFYPREAKVQWKVDNALQSGNSQESVTEQDSKDSTYSLSSTLTLSKADYEKHKVYACEVTHQGLSSPVTKSFNRGEC |  |  |  |  |  |  | 14.167 |  |  |  | 
3-7 (conjugate) heavy: EVQLVQSGAEVKKPGASVKVSCKASGYSFTDYYMHWVRQAPGQGLEWIGRINPYAGAAFYSQNFKDRVTLTVDTSTSTAYLELSSLRSEDTAVYYCAIERGADLEGYAMDYWGQGTLVTVSSASTKGPSVFPLAPSSKSTSGGTAALGCLVKDYFPEPVTVSWNSGALTSGVHTFPAVLQSSGLYSLSSVVTVPSSSLGTQTYICNVNHKPSNTKVDKKV[human IgG1 Fc not printed] light: DIQMTQSPSSLSASVGDRVTITCRASQSVSTSSYNYMHWYQQKPGKPPKLLIKYASNLESGVPSRFSGSGSGTDFTLTISSLQPEDFATYYCQHSWEIPLTFGQGTKVEIKRTVAAPSVFIFPPSDEQLKSGTASVVCLLNNFYPREAKVQWKVDNALQSGNSQESVTEQDSKDSTYSLSSTLTLSKADYEKHKVYACEVTHQGLSSPVTKSFNRGEC |  |  | lower payload exposure | lower DAR changes |  |  | 11.961 | 13175 | 12900 | 3.60 | 3.36
3-5 (conjugate) heavy: EVQLVQSGAEVKKPGASVKVSCKASGYSFTDYYMHWVRQAPGQGLEWIGRINPYAGAAFYSQNFKDRVTLTVDTSTSTAYLELSSLRSEDTAVYYCAIERGADLEGYAMDYWGQGTLVTVSSASTKGPSVFPLAPSSKSTSGGTAALGCLVKDYFPEPVTVSWNSGALTSGVHTFPAVLQSSGLYSLSSVVTVPSSSLGTQTYICNVNHKPSNTKVDKKV[human IgG1 Fc not printed] light: DIQMTQSPSSLSASVGDRVTITCRASQSVSTSSYNYMHWYQQKPGKPPKLLIKYASNLESGVPSRFSGSGSGTDFTLTISSLQPEDFATYYCQHSWEIPLTFGQGTKVEIKRTVAAPSVFIFPPSDEQLKSGTASVVCLLNNFYPREAKVQWKVDNALQSGNSQESVTEQDSKDSTYSLSSTLTLSKADYEKHKVYACEVTHQGLSSPVTKSFNRGEC | 8380 | 8051 | lower payload exposure | lower DAR changes | 2.94 | 2.34 |  |  |  |  | 

Where two headings read alike, the source gives them in different places.
